Measurements reported in patent publication US11793885B2, “Substituted benzo[5,6][1,4]diazepino[1,2-a]indoles for the treatment of proliferative disorders” (priority 2017, dated 2023).

Key:
[1] = system: NCI-H2110 (Non Small Cell Lung Carcinoma); test: in vitro cytotoxicity assay, NCI-H2110 cells; format: cell-based; conditions: M9346A conjugate
[2] = system: KB (cervical carcinoma); test: in vitro cytotoxicity assay, KB cells; format: cell-based, human; conditions: M9346A conjugate
[3] = system: Ishikawa (endometrial adenocarcinoma); test: in vitro cytotoxicity assay, Ishikawa cells; format: cell-based; conditions: M9346A conjugate
[4] = system: FRα-negative cells 300-19 in mixed culture with 300-19 transfected with human FRα; test: bystander cytotoxicity assay (300.19 −/+FRα system); format: cell-based; conditions: 300.19 cell system −/+FRα, 4 days
Description: A mixed culture of FRα-positive cells 300-19 transfected with human FRα and FRα-negative cells 300-19 was exposed to conjugates at concentrations that are not toxic for the negative cells but highly toxic for the receptor-positive cells (killing 100% of the cells). Cells were incubated for 4 days, and the inhibition of cell proliferation was determined by Cell Titer Glo (Promega) according to the manufacturer's protocol.

[5] = system: HEC-1B; test: in vitro cytotoxicity assay, HEC-1B cells; format: cell-based; conditions: M9346A conjugate
[6] = with excess unconjugated antibody, read-out: IC50 H2110 + block
[7] = without excess unconjugated antibody, read-out: IC50 H2110 − block
[8] = with excess unconjugated antibody, read-out: IC50 KB + block
[9] = without excess unconjugated antibody, read-out: IC50 KB − block

Row | Molecule | IC50 [1, 6] | IC50 [1, 7] | IC50 [2, 8] | IC50 [2, 9] | IC50 ([3]; with excess unconjugated antibody, read-out: IC50 Ishikawa + block) | IC50 ([3]; without excess unconjugated antibody, read-out: IC50 Ishikawa − block) | % FRα-negative cells killed at 4e−10M conjugate [4] | IC50 ([5]; with excess unconjugated antibody, read-out: IC50 HEC-1B + block) | IC50 ([5]; without excess unconjugated antibody, read-out: IC50 HEC-1B − block)
1 | M-143 or 144: "crude, sulfonated compound 144 thus prepared was added to a solution of huMov19 antibody"; "2.9 mol 144/mol antibody" (conjugate, chains of the INN, looked up, payload compound 143/144) heavy: QVQLVQSGAEVVKPGASVKISCKASGYTFTGYFMNWVKQSPGQSLEWIGRIHPYDGDTFYNQKFQGKATLTVDKSSNTAHMELLSLTSEDFAVYYCTRYDGSRAMDYWGQGTTVTVSSASTKGPSVFPLAPSSKSTSGGTAALGCLVKDYFPEPVTVSWNSGALTSGVHTFPAVLQSSGLYSLSSVVTVPSSSLGTQTYICNVNHKPSNTKVDKKV[left out - human IgG1 Fc] light: DIVLTQSPLSLAVSLGQPAIISCKASQSVSFAGTSLMHWYHQKPGQQPRLLIYRASNLEAGVPDRFSGSGSKTDFTLTISPVEAEDAATYYCQQSREYPYTFGGGTKLEIKRTVAAPSVFIFPPSDEQLKSGTASVVCLLNNFYPREAKVQWKVDNALQSGNSQESVTEQDSKDSTYSLSSTLTLSKADYEKHKVYACEVTHQGLSSPVTKSFNRGEC | 40 nM | 2 nM | 3 nM | 0.01 nM | – | – | – | – | –
2 | M-sSPDB-30: "crude sulfo-SPDB-30 was then added to a solution containing huMov19 antibody"; "2.5 mol 30/mol antibody" (conjugate, chains of the INN, looked up, sulfo-SPDB linker, payload 30) heavy: QVQLVQSGAEVVKPGASVKISCKASGYTFTGYFMNWVKQSPGQSLEWIGRIHPYDGDTFYNQKFQGKATLTVDKSSNTAHMELLSLTSEDFAVYYCTRYDGSRAMDYWGQGTTVTVSSASTKGPSVFPLAPSSKSTSGGTAALGCLVKDYFPEPVTVSWNSGALTSGVHTFPAVLQSSGLYSLSSVVTVPSSSLGTQTYICNVNHKPSNTKVDKKV[left out - human IgG1 Fc] light: DIVLTQSPLSLAVSLGQPAIISCKASQSVSFAGTSLMHWYHQKPGQQPRLLIYRASNLEAGVPDRFSGSGSKTDFTLTISPVEAEDAATYYCQQSREYPYTFGGGTKLEIKRTVAAPSVFIFPPSDEQLKSGTASVVCLLNNFYPREAKVQWKVDNALQSGNSQESVTEQDSKDSTYSLSSTLTLSKADYEKHKVYACEVTHQGLSSPVTKSFNRGEC | > 40 nM | > 40 nM | > 4 nM | > 4 nM | – | – | – | – | –
3 | M-167: "conjugate huMov19-167" (conjugate, chains of the INN, looked up, payload compound 167) heavy: QVQLVQSGAEVVKPGASVKISCKASGYTFTGYFMNWVKQSPGQSLEWIGRIHPYDGDTFYNQKFQGKATLTVDKSSNTAHMELLSLTSEDFAVYYCTRYDGSRAMDYWGQGTTVTVSSASTKGPSVFPLAPSSKSTSGGTAALGCLVKDYFPEPVTVSWNSGALTSGVHTFPAVLQSSGLYSLSSVVTVPSSSLGTQTYICNVNHKPSNTKVDKKV[left out - human IgG1 Fc] light: DIVLTQSPLSLAVSLGQPAIISCKASQSVSFAGTSLMHWYHQKPGQQPRLLIYRASNLEAGVPDRFSGSGSKTDFTLTISPVEAEDAATYYCQQSREYPYTFGGGTKLEIKRTVAAPSVFIFPPSDEQLKSGTASVVCLLNNFYPREAKVQWKVDNALQSGNSQESVTEQDSKDSTYSLSSTLTLSKADYEKHKVYACEVTHQGLSSPVTKSFNRGEC | – | – | – | – | 20 nM | 9 nM | 13% | 3 nM | 3 nM

Read-outs that look alike come from different tables or passages of the source.
